The text below walks through data of US6545010B2, “Composition comprising camptothecin or a camptothecin derivative and a platin derivative for the treatment of cancer” (priority 2000, dated 2003).

The test system of this series is Colon Adenocarcinoma C51. In words: CPT-11, cisplatin and combination, three-arm study in mice bearing colon adenocarcinoma C51. Conditions: Cisplatin i.v. 5.0 mg/kg/adm, days 4, 7.

Regarding cis-diaminedichloroplatinum, the Comments entry is given as “Toxic”.
